Measurements from PubChem BioAssay AID2557 (NMMLSC, 2010).
Only a part is listed here, and it is no random draw. Some salts and complexes are drawn in separate pieces, as the source files them; their charges need not balance. Activity calls are given as the source filed them. Cut-off read from the data, not from the text of the source: active = inhibition above about 50%; inactive = the rest.

Amino acid sequences for entries named in this document (tags omitted).
UniProt P13612, whole entry, looked up: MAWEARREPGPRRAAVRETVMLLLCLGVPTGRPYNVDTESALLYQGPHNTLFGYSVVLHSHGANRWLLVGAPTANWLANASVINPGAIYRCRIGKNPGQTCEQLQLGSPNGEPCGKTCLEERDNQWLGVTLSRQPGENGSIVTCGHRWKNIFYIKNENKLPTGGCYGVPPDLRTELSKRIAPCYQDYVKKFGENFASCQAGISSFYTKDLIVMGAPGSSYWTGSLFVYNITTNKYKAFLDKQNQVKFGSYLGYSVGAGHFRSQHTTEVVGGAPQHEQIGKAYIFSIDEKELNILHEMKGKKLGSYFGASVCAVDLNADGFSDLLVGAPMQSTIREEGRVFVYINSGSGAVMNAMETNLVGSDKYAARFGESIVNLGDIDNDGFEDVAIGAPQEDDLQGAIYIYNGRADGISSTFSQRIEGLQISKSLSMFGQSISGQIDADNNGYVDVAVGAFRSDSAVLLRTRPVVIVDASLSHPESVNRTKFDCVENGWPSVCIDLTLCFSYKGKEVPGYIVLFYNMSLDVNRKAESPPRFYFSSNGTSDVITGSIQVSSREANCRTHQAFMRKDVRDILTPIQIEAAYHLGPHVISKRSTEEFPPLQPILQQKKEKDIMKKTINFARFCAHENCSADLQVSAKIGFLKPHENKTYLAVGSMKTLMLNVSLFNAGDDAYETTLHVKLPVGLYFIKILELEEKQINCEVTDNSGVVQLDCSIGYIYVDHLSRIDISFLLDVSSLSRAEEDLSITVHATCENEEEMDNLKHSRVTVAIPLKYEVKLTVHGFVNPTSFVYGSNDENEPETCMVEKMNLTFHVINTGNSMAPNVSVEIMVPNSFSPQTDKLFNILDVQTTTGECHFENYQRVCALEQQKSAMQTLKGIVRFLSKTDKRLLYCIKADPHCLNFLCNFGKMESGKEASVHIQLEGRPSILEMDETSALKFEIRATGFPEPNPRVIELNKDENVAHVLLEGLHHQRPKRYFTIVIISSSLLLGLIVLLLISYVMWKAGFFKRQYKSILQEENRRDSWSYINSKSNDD

Molecular target: Integrin alpha-4 (Homo sapiens) (UniProt P13612)
Assay: inhibition in human VLA-4 binding assay, primary screen, VLA-4 allosteric modulator project, MLPCN library, flow cytometry, VLA-4 expressing cells (AID 2557)
Conditions: ligand binding flow cytometry, hits give high values, about 7 µM as worked out from the volumes in the protocol

Compound | inhibition
COc1ccc(OP(C)(=O)Nc2cccc(Br)c2)cc1 (centres undefined) | inactive: 48.7%
CN(C)CCOC(=O)C(O)(c1ccccc1)C1CCCCC1 (centres undefined) | inactive: -9.79%
COc1ccc(NP(C)(=O)Oc2ccccc2OC)cc1 (centres undefined) | inactive: 2.8%
O=[N+]([O-])c1ccc(OP2(=O)COCCO2)cc1 (centres undefined) | inactive: 0%
O=[N+]([O-])c1cc([N+](=O)[O-])c(NCC2CCS(=O)(=O)C2)c([N+](=O)[O-])c1 (centres undefined) | inactive: 12.7%
CP(=O)(Nc1ccc(SC(F)(F)F)cc1)Oc1ccc(F)cc1 (centres undefined) | inactive: 13.7%
CCOP(C)(=S)SCC(=O)NC(C)(CC)C(=O)O (centres undefined) | inactive: 2.62%
CP(=O)(Nc1ccc2c(c1)OCCO2)Oc1ccccc1 (centres undefined) | inactive: 11.6%
Cc1ccccc1NP(C)(=O)Nc1ccccc1C | inactive: -4.38%
CP(=O)(Nc1ccccc1F)Oc1ccccc1 (centres undefined) | inactive: 2.4%
CC(C)c1ccc(OP(C)(=O)Nc2ccc(SC(F)(F)F)cc2)cc1 (centres undefined) | inactive: 31.9%
O=C(OC1CN2CCC1CC2)c1ccc([N+](=O)[O-])cc1 (centres undefined) | inactive: -2.64%
O=C(OCCN1CCN(CCOCc2ccccc2)CC1)C(O)(c1ccccc1)c1ccccc1 | inactive: 20.6%
COc1ccc2c(c1O)-c1c(O)c(OC)cc3c1[C@H](C2)[N+](C)(C)CC3.O=[N+]([O-])c1cc([N+](=O)[O-])c([O-])c([N+](=O)[O-])c1[O-] | inactive: 20.2%
CCOC(=O)c1ccc(NP(C)(=O)Oc2ccc(F)cc2)cc1 (centres undefined) | inactive: -5.67%
COc1ccc(OP(C)(=O)Nc2ccc(SC(F)(F)F)cc2)cc1 (centres undefined) | inactive: 4.34%
CCN(CC)CCCOC(=O)C(O)(c1ccccc1)C1CCCCC1 (centres undefined) | inactive: 20.8%
CP(=O)(Nc1ccccc1)Oc1ccc(F)cc1 (centres undefined) | inactive: 16.5%
O=[N+]([O-])c1cc([N+](=O)[O-])c(OC2CCCCC2O)c([N+](=O)[O-])c1 (centres undefined) | inactive: 20.3%
CCCCCOc1ccc(NP(C)(=O)Oc2ccc(Cl)cc2Cl)cc1 (centres undefined) | inactive: 18.9%
Cc1cc(C)cc(OP(C)(=O)Nc2cccc(C(F)(F)F)c2)c1 (centres undefined) | inactive: -14%
COc1ccccc1OP(C)(=O)Nc1ccc(C)c(C)c1 (centres undefined) | inactive: 4.79%
COc1ccc(OP(C)(=O)Nc2ccccc2Br)cc1 (centres undefined) | inactive: 13.3%

Compound | inhibition
Cc1nc2ccc3ccccc3c2o1.O=[N+]([O-])c1cc([N+](=O)[O-])c(O)c([N+](=O)[O-])c1 | inactive: 7.43%
CP(=O)(OCCOc1ccccc1)OCCOc1ccccc1 | inactive: -3.25%
CP(=O)(Nc1ccc(Cl)cc1Cl)Oc1ccccc1 (centres undefined) | inactive: -0.16%
COc1ccccc1OP(C)(=O)Nc1ccc(Br)cc1 (centres undefined) | inactive: 5.35%
COc1ccc(OP(C)(=O)Nc2ccccn2)cc1 (centres undefined) | inactive: -1.34%
CN(C)CCOC(=O)C(O)(c1ccccc1)C1CCCC1 (centres undefined) | inactive: -0.78%
O=[N+]([O-])c1cc([N+](=O)[O-])c(Nc2ccccn2)c([N+](=O)[O-])c1 | inactive: 5.24%
Cc1c(NP(C)(=O)Oc2ccc(C(C)C)cc2)c(=O)n(-c2ccccc2)n1C (centres undefined) | inactive: 5.9%
COc1ccccc1OP(C)(=O)Nc1ccc(C)cc1C (centres undefined) | inactive: -1.15%
CP(=O)(Nc1ccccn1)Oc1ccccc1 (centres undefined) | inactive: 5.06%
CCc1ccc(OP(C)(=O)O)cc1 | inactive: 3.18%
COc1ccc(OP(C)(=O)Nc2ccc(Br)cc2)cc1 (centres undefined) | inactive: 1.59%
CCN(CC)CC(O)COC(=O)C(O)(c1ccccc1)C1CCCCC1 (centres undefined) | inactive: 6.2%
O=C(OCCCN1CCCC1)C(O)(c1ccccc1)C1CCCCC1 (centres undefined) | inactive: -7.06%
COc1ccccc1OP(C)(=O)Nc1c(C)n(C)n(-c2ccccc2)c1=O (centres undefined) | inactive: 4.19%
CCc1ccc(OP(C)(=O)Nc2cccnc2)cc1 (centres undefined) | inactive: 13.5%
CP(=O)(Oc1ccccc1)N1CCOC1=O (centres undefined) | inactive: 23.6%
CC(C)(C)c1ccc(OP(C)(=O)O)cc1 | inactive: -4.9%
COc1ccccc1OP(C)(=O)Nc1ccccc1Br (centres undefined) | inactive: -0.32%
CP(=O)(Nc1ccc(Cl)cc1)Oc1ccc(F)cc1 (centres undefined) | inactive: 3.63%
CN(C)C(=O)c1c([N+](=O)[O-])cc([N+](=O)[O-])cc1[N+](=O)[O-] | inactive: 0%
Nc1ccc2c(ccc3cccnc32)n1.O=[N+]([O-])c1cc([N+](=O)[O-])c(O)c([N+](=O)[O-])c1 | inactive: -7.18%
CCOC(=O)c1ccc(NP(C)(=O)Oc2ccc(Cl)cc2)cc1 (centres undefined) | inactive: 9.3%

Compound | inhibition
CP(=O)(OC12CC3CC(CC(C3)C1)C2)OC12CC3CC(CC(C3)C1)C2 | inactive: 5.51%
CP(=S)(Nn1cnnc1)Oc1ccccc1 (centres undefined) | inactive: 18.9%
CP(=O)(Nc1ccccc1Br)Oc1ccccc1 (centres undefined) | inactive: 13%
COc1ccccc1OP(C)(=O)Nc1ccccc1 (centres undefined) | inactive: 11.3%
CP(=O)(Oc1ccccc1)OC(c1ccccc1)C(F)(F)F (centres undefined) | inactive: -4.25%
CP(=O)(Nc1ccc(SC(F)(F)F)cc1)Oc1ccc(Cl)cc1 (centres undefined) | inactive: 6.17%
Cc1cccc(C)c1OP(C)(=O)Nc1ccc(SC(F)(F)F)cc1 (centres undefined) | inactive: -2.26%
Cc1cc(C)cc(OP(C)(=O)Nc2ccc(SC(F)(F)F)cc2)c1 (centres undefined) | inactive: 8.27%
CCc1ccc(OP(C)(=O)N2CCN(c3ccc([N+](=O)[O-])cc3)CC2)cc1 (centres undefined) | inactive: 0.1%
CP(=O)(NC(=O)Nc1ccccc1)Oc1ccccc1 (centres undefined) | inactive: 6.56%
O=[N+]([O-])c1cc([N+](=O)[O-])c(O)c([N+](=O)[O-])c1.c1ccc(Oc2ccncc2)cc1 | inactive: 22.9%
CCOC(=O)c1ccc(NP(C)(=O)Oc2ccc(OC)cc2)cc1 (centres undefined) | inactive: -0.88%
CCOP(C)(=S)SCC(=O)NC(C)C(=O)O (centres undefined) | inactive: 19.5%
CP(=O)(Nc1ccccn1)Oc1ccc(Cl)cc1 (centres undefined) | inactive: -17%
CCN(CC)CCCOC(=O)C(O)(c1ccccc1)c1ccccc1 | inactive: 18.7%
O=[N+]([O-])c1cc([N+](=O)[O-])c(Nc2cccnc2)c([N+](=O)[O-])c1 | inactive: 28%
O=[N+]([O-])c1ccc2c(c1)C=Nc1ccccc1O2 | inactive: 4.88%
Cc1cccc(C)c1OP(C)(N)=O (centres undefined) | inactive: 2.4%
CC(C)(C)c1ccc(OP(C)(=O)Nc2ccc(SC(F)(F)F)cc2)cc1 (centres undefined) | inactive: 19.1%
Cc1ccc(NP(C)(=O)Oc2ccccc2)c(C)c1 (centres undefined) | inactive: -0.17%
COc1ccccc1OP(C)(=O)Nc1ccc(C)cc1 (centres undefined) | inactive: -3.05%
CCOC(=O)c1ccc(NP(C)(=O)Oc2ccccc2)cc1 (centres undefined) | inactive: 15.2%
Cc1cc(C)cc(OP(C)(N)=O)c1 (centres undefined) | inactive: -0.51%

Compound | inhibition
COc1ccc(OP(C)(=O)Nc2cccc(F)c2)cc1 (centres undefined) | inactive: -8.2%
COc1ccccc1OP(C)(=O)Nc1cc(Cl)ccc1C (centres undefined) | inactive: -1.08%
O=C(O)c1cccc(Nc2c([N+](=O)[O-])cc([N+](=O)[O-])cc2[N+](=O)[O-])c1 | inactive: 8.42%
CC1=NCCc2c1[nH]c1ccccc21.O=[N+]([O-])c1cc([N+](=O)[O-])c(O)c([N+](=O)[O-])c1 | inactive: -0.18%
COc1ccccc1OP(C)(=O)Nc1cccc(Br)c1 (centres undefined) | inactive: 12.2%
CCOC(=O)c1ccc(NP(C)(=O)Oc2cc(C)cc(C)c2)cc1 (centres undefined) | inactive: 12.6%
Cc1cc(C)cc(OP(C)(=O)Nc2ccc(C)cc2C)c1 (centres undefined) | inactive: -3.41%
Cc1ccc(C)c(NP(C)(=O)Oc2ccccc2)c1 (centres undefined) | inactive: 8.35%
CP(=O)(Nc1cccc(Br)c1)Oc1ccccc1 (centres undefined) | inactive: 5.38%
Cc1cc(C)cc(OP(C)(=O)Nc2ccccn2)c1 (centres undefined) | inactive: -2.84%
O=[N+]([O-])c1cc([N+](=O)[O-])c(-n2nnc3ccccc32)c([N+](=O)[O-])c1 | inactive: 9.89%
O=[N+]([O-])c1cc([N+](=O)[O-])c(-c2cnn(-c3ccccc3)c2)c([N+](=O)[O-])c1 | inactive: -0.42%
Cc1nc2ccc3ccccc3c2s1.O=[N+]([O-])c1cc([N+](=O)[O-])c(O)c([N+](=O)[O-])c1 | inactive: 0.49%
CCOC(=O)C(CC)C1=NC(C)(C)Cc2ccccc21.O=[N+]([O-])c1cc([N+](=O)[O-])c(O)c([N+](=O)[O-])c1 (centres undefined) | inactive: 5.43%
O=[N+]([O-])c1cc([N+](=O)[O-])c(Nc2nnnn2CCO)c([N+](=O)[O-])c1 | inactive: -0.02%
CC1=C2N=C(C=C3N=C(C(C)=C4[N-][C@@](C)([C@@H]5N=C1[C@](C)(CCC(=O)NC[C@@H](C)OP(=O)([O-])O[C@H]1[C@@H](O)[C@@H](n6cnc7cc(C)c(C)cc76)O[C@@H]1CO)[C@H]5CC(N)=O)[C@@](C)(CC(N)=O)[C@@H]4CCC(N)=O)[C@@](C)(CC(N)=O)[C@@H]3CCC(N)=O)C(C)(C)[C@@H]2CCC(N)=O.[C-]#N.[Co+3] | inactive: 6.63%
CN1CCCCC1COC(=O)C1(O)c2ccccc2CCc2ccccc21 (centres undefined) | inactive: 7.2%
COc1ccccc1OP(C)(=O)Nc1c(C)cccc1C (centres undefined) | inactive: 3.87%
CP(=O)(Nc1ccc(SC(F)(F)F)cc1)Oc1ccccc1 (centres undefined) | inactive: 14.3%
CCCOc1ccc(NP(C)(=O)Oc2ccc(Cl)cc2)cc1 (centres undefined) | inactive: 7.27%
